Measurements published in BindingDB's records for PubMed 9864265 (Second Tokushima Institute of New Drug Research, 1998).

Sequences of proteins named here, by UniProt entry; tags and fusion partners are left off.
UniProt Q00788, whole entry: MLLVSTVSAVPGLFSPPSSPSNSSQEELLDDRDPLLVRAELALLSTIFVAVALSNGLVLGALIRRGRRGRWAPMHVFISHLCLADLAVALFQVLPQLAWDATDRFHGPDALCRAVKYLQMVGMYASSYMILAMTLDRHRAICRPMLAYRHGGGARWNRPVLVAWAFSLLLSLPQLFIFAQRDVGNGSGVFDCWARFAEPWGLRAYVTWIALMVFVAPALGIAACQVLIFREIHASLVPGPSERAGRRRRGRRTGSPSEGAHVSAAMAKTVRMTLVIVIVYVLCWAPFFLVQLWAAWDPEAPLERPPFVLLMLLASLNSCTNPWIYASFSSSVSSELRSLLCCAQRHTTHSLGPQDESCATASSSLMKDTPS

Molecular target: Vasopressin V2 receptor (Rattus norvegicus, UniProt Q00788)

`NC(=O)CC[C@@H]1NC(=O)[C@H](Cc2ccccc2)NC(=O)[C@H](Cc2ccc(O)cc2)NC(=O)[C@@H](N)CSSC[C@@H](C(=O)N2CCC[C@H]2C(=O)N[C@@H](CCCN=C(N)N)C(=O)NCC(N)=O)NC(=O)[C@H](CC(N)=O)NC1=O` [[3H]Argipressin tannate] showed a Ki of 0.95 nM.
